According to US11365196B2, “FGFR inhibitor and application thereof” (Betta Pharmaceuticals Co., Ltd., priority 2017, dated 2022):

Legend:
[1] = tested on: NCI-H1581 cells; test: Cell proliferation assay on NCI-H1581 (Table 7); format: cell-based; settings: Homo sapiens, NCI-H1581, read-out: IC50(nM) value of compounds on NCI-H1581 cells
From the text: (§1) Test method: adding the appropriate volume of whole medium and the cells was suspended.

[2] = tested on: SNU-16 cells; test: Cell proliferation assay on SNU-16, CellTiter Glo (Table 8); format: cell-based; settings: Homo sapiens, 96 hrs, class symbols, read-out: IC50(nM) value of compounds on SNU-16 cells
From the text: as §1

SMILES | IC50 [1] [nM] | IC50 [2] [nM]
CCN1CCN(c2ccc(Nc3ncc4cc(-c5cc(OC)cc(OC)c5Cl)c5ncnn5c4n3)cc2)CC1 [Compound 2, 4-(2-chloro-3,5-dimethoxyphenyl)-N-(4-(4-ethylpiperazin-1-yl)phenyl)-[1,2,4]triazolo[1′,5′:1,6]pyrido[2,3-d]pyrimidin-8-amine] | < 1 | –
C=CC(=O)N1CCN(CCCc2nc3c(-c4c(Cl)c(OC)cc(OC)c4Cl)cc4cnc(NC)nc4n3n2)C(C)(C)C1 [Compound 142, 1-(4-(3-(4-(2,6-dichloro-3,5-dimethoxyphenyl)-8-(methylamino)-[1,2,4]triazolo[1′,5′:1,6]pyrido[2,3-d]pyrimidin-2-yl)propyl)-3,3-dimethylpiperazin-1-yl)prop-2-en-1-one] | 1 to 10 | < 1
COc1cc(OC)c(Cl)c(-c2cc3cnc(Nc4ccc(N5CCN(CC(F)(F)F)CC5)cc4)nc3n3cnnc23)c1 [Compound 103, 6-(2-chloro-3,5-dimethoxyphenyl)-N-(4-(4-(2,2,2-trifluoroethyl)piperazin-1-yl)phenyl)-[1,2,4]triazolo[4′,3′:1,6]pyrido[2,3-d]pyrimidin-2-amine] | 1 to 10 | –
COc1cc(OC)cc(-c2cc3cnc(Nc4ccc(N5CCN6CCC[C@@H]6C5)cc4)nc3n3cnnc23)c1 [Compound 39, (R)-6-(3,5-dimethoxyphenyl)-N-(4-(hexahydropyrrolo[1,2-a]pyrazin-2(1H)-yl)phenyl)-[1,2,4]triazolo[4′,3′:1,6]pyrido[2,3-d]pyrimidin-2-amine] | 10 to 100 | –
COc1cc(OC)c(Cl)c(-c2cc3cnc(Nc4ccc(N5CCOCC5)cc4)nc3n3cnnc23)c1 [Compound 10, 6-(2-chloro-3,5-dimethoxyphenyl)-N-(4-morpholinophenyl)-[1,2,4]triazolo[4′,3′:1,6]pyrido[2,3-d]pyrimidin-2-amine] | 1 to 10 | –
CCN1CCN(c2ccc(Nc3ncc4cc(-c5cc(OC)cc(OC)c5Cl)c5nncn5c4n3)cc2)C(=O)C1 [Compound 18, 6-(2-chloro-3,5-dimethoxyphenyl)-N-(4-(4-ethyl-2-oxopiperazin-1-yl)phenyl)-[1,2,4]triazolo[4′,3′:1,6]pyrido[2,3-d]pyrimidin-2-amine] | 1 to 10 | –
COc1cc(OC)c(Cl)c(-c2cc3cnc(Nc4ccc(N5CCN(C6CC6)CC5)cc4)nc3n3cnnc23)c1 [Compound 12, 6-(2-chloro-3,5-dimethoxyphenyl)-N-(4-(4-cyclopropylpiperazin-1-yl)phenyl)-[1,2,4]triazolo[4′,3′:1,6]pyrido[2,3-d]pyrimidin-2-amine] | 1 to 10 | –
C=CC(=O)N1CCN(CCCc2nc3c(-c4c(Cl)c(OC)cc(OC)c4Cl)cc4cnc(NC)nc4n3n2)CC1 [Compound 122, 1-(4-(3-(4-(2,6-dichloro-3,5-dimethoxyphenyl)-8-(methylamino)-[1,2,4]triazolo[1′,5′:1,6]pyrido[2,3-d]pyrimidin-2-yl)propyl)piperazin-1-yl)prop-2-en-1-one] | < 1 | –
COc1cc(OC)c(Cl)c(-c2cc3cnc(Nc4ccc(N[C@H]5CCN(C(=O)N(C)C)C5)cc4)nc3n3cnnc23)c1 [Compound 109, (S)-3-((4-((6-(2-chloro-3,5-dimethoxyphenyl)-[1,2,4]triazolo[4′,3′:1,6]pyrido[2,3-d]pyrimidin-2-yl)amino)phenyl)amino)-N,N-dimethylpyrrolidine-1-carboxamide] | 1 to 10 | –
C=CC(=O)N1CCC(N(C)CCCc2nc3c(-c4c(Cl)c(OC)cc(OC)c4Cl)cc4cnc(NC)nc4n3n2)CC1 [Compound 134, 1-(4-((3-(4-(2,6-dichloro-3,5-dimethoxyphenyl)-8-(methylamino)-[1,2,4]triazolo[1′,5′:1,6]pyrido[2,3-d]pyrimidin-2-yl)propyl)(methyl)amino)piperidin-1-yl)prop-2-en-1-one] | < 1 | –
COc1cc(OC)c(Cl)c(-c2cc3cnc(Nc4ccc(N5CCC(N(C)C)CC5)cc4OC)nc3n3cnnc23)c1 [Compound 31, 6-(2-chloro-3,5-dimethoxyphenyl)-N-(4-(4-(dimethylamino)piperidin-1-yl)-2-methoxyphenyl)-[1,2,4]triazolo[4′,3′:1,6]pyrido[2,3-d]pyrimidin-2-amine] | 10 to 100 | –
C=CC(=O)N1[C@H](C)CN(CCCc2nc3c(-c4c(Cl)c(OC)cc(OC)c4Cl)cc4cnc(NCC5CC5)nc4n3n2)C[C@@H]1C [Compound 135, 1-((2R,6S)-4-(3-(8-((cyclopropylmethyl)amino)-4-(2,6-dichloro-3,5-dimethoxyphenyl)-[1,2,4]triazolo[1′,5′:1,6]pyrido[2,3-d]pyrimidin-2-yl)propyl)-2,6-dimethylpiperazin-1-yl)prop-2-en-1-one] | 1 to 10 | –
COc1cc(OC)c(Cl)c(-c2cc3cnc(Nc4ccc(N5CCN(C6CC(O)C6)CC5)cc4)nc3n3cnnc23)c1 (stereo not drawn) [Compound 101, 3-(4-(4-((6-(2-chloro-3,5-dimethoxyphenyl)-[1,2,4]triazolo[4′,3′:1,6]pyrido[2,3-d]pyrimidin-2-yl)amino)phenyl)piperazin-1-yl)cyclobutan-1-ol] | 1 to 10 | –
COc1cc(OC)c(Cl)c(-c2cc3cnc(Nc4ccc(N5CCN(C6CCC6)CC5)cc4)nc3n3cnnc23)c1 [Compound 105, 6-(2-chloro-3,5-dimethoxyphenyl)-N-(4-(4-cyclobutylpiperazin-1-yl)phenyl)-[1,2,4]triazolo[4′,3′:1,6]pyrido[2,3-d]pyrimidin-2-amine] | 1 to 10 | –
C=CC(=O)N1CCC(CCCc2nc3c(-c4c(Cl)c(OC)cc(OC)c4Cl)cc4cnc(NC)nc4n3n2)CC1 [Compound 130, 1-(4-(3-(4-(2,6-dichloro-3,5-dimethoxyphenyl)-8-(methylamino)-[1,2,4]triazolo[1′,5′:1,6]pyrido[2,3-d]pyrimidin-2-yl)propyl)piperidin-1-yl)prop-2-en-1-one] | – | < 1
CCN1CCN(c2ccc(Nc3ncc4cc(-c5cc(OC)cc(OC)c5Cl)c5nncn5c4n3)cc2)CC1=O [Compound 19, 6-(2-chloro-3,5-dimethoxyphenyl)-N-(4-(4-ethyl-3-oxopiperazin-1-yl)phenyl)-[1,2,4]triazolo[4′,3′:1,6]pyrido[2,3-d]pyrimidin-2-amine] | 1 to 10 | –
CCN1CCN(Cc2ccc(Nc3ncc4cc(-c5cc(OC)cc(OC)c5Cl)c5nncn5c4n3)cc2)CC1 [Compound 44, 6-(2-chloro-3,5-dimethoxyphenyl)-N-(4-((4-ethylpiperazin-1-yl)methyl)phenyl)-[1,2,4]triazolo[4′,3′:1,6]pyrido[2,3-d]pyrimidin-2-amine] | 1 to 10 | –
C=CC(=O)Nc1ccc(CCc2nnc3c(-c4cc(OC)cc(OC)c4Cl)cc4cnc(NCCN5CCOCC5)nc4n23)cc1 [Compound 97, N-(4-(2-(6-(2-chloro-3,5-dimethoxyphenyl)-2-((2-morpholinoethyl)amino)-[1,2,4]triazolo[4′,3′:1,6]pyrido[2,3-d]pyrimidin-9-yl)ethyl)phenyl)acrylamide] | 10 to 100 | –
CCN1CCN(c2ccc(Nc3ncc4cc(-c5cc6[nH]c(C)cc6cc5Cl)c5nncn5c4n3)cc2)CC1 [Compound 71, 6-(5-chloro-2-methyl-1H-indol-6-yl)-N-(4-(4-ethylpiperazin-1-yl)phenyl)-[1,2,4]triazolo[4′,3′:1,6]pyrido[2,3-d]pyrimidin-2-amine] | < 1 | –
COc1cc(OC)c(Cl)c(-c2cc3cnc(Nc4ccc(N5CCNCC5)cc4)nc3n3cnnc23)c1 [Compound 48, 6-(2-chloro-3,5-dimethoxyphenyl)-N-(4-(piperazin-1-yl)phenyl)-[1,2,4]triazolo[4′,3′:1,6]pyrido[2,3-d]pyrimidin-2-amine] | 1 to 10 | –
C=CC(=O)N1CCN(CCCc2nc3c(-c4cc(OC)cc(OC)c4Cl)cc4cnc(NC)nc4n3n2)CC1 [Compound 115, 1-(4-(3-(4-(2-chloro-3,5-dimethoxyphenyl)-8-(methylamino)-[1,2,4]triazolo[1′,5′:1,6]pyrido[2,3-d]pyrimidin-2-yl)propyl)piperazin-1-yl)prop-2-en-1-one] | 0.5 | –
C=CC(=O)N1[C@H](C)CN(CCCc2nc3c(-c4c(Cl)c(OC)cc(OC)c4Cl)cc4cnc(NC)nc4n3n2)C[C@@H]1C [Compound 133, 1-((2R,6S)-4-(3-(4-(2,6-dichloro-3,5-dimethoxyphenyl)-8-(methylamino)-[1,2,4]triazolo[1′,5′:1,6]pyrido[2,3-d]pyrimidin-2-yl)propyl)-2,6-dimethylpiperazin-1-yl)prop-2-en-1-one] | < 1 | –
C=CC(=O)N1CC2(CN(CCCc3nc4c(-c5c(Cl)c(OC)cc(OC)c5Cl)cc5cnc(NC)nc5n4n3)C2)C1 [Compound 125, 1-(6-(3-(4-(2,6-dichloro-3,5-dimethoxyphenyl)-8-(methylamino)-[1,2,4]triazolo[1′,5′:1,6]pyrido[2,3-d]pyrimidin-2-yl)propyl)-2,6-diazaspiro[3.3]heptan-2-yl)prop-2-en-1-one] | 1 to 10 | –
COc1cc(OC)c(Cl)c(-c2cc3cnc(Nc4ccc(CN5CCNCC5)cc4)nc3n3cnnc23)c1 [Compound 58, 6-(2-chloro-3,5-dimethoxyphenyl)-N-(4-(piperazin-1-ylmethyl)phenyl)-[1,2,4]triazolo[4′,3′:1,6]pyrido[2,3-d]pyrimidin-2-amine] | 10 to 100 | –
COc1cc(OC)c(Cl)c(-c2cc3cnc(Nc4ccc(N5C[C@@H](C)N(C)[C@@H](C)C5)cc4)nc3n3cnnc23)c1 [Compound 20, 6-(2-chloro-3,5-dimethoxyphenyl)-N-(4-((3S,5R)-3,4,5-trimethylpiperazin-1-yl)phenyl)-[1,2,4]triazolo[4′,3′:1,6]pyrido[2,3-d]pyrimidin-2-amine] | < 1 | –
C=CC(=O)N1[C@H](C)CN(CCCc2nc3c(-c4c(Cl)c(OC)cc(OC)c4Cl)cc4cnc(NCC(F)F)nc4n3n2)C[C@@H]1C [Compound 136, 1-((2R,6S)-4-(3-(4-(2,6-dichloro-3,5-dimethoxyphenyl)-8-((2,2-difluoroethyl)amino)-[1,2,4]triazolo[1′,5′:1,6]pyrido[2,3-d]pyrimidin-2-yl)propyl)-2,6-dimethylpiperazin-1-yl)prop-2-en-1-one] | 1 to 10 | –
